Assay results from patent publication US20190184025A1.
*1 amine or outer side, *2 acyl side, *3 side chain or, on linkers, in order; H or OH if unused. Bridges are numbered along the chain shown (N, C = ends). Where no end group is shown, it is not given here. [ ]: non-standard residue; d: D form. Sar10 = ten sarcosine residues in a row, CN(CC(=O)N(C)CC(=O)N(C)CC(=O)N(C)CC(=O)N(C)CC(=O)[*:2])C(=O)CN(C)C(=O)CN(C)C(=O)CN(C)C(=O)CN(C)C(=O)CN(C)[*:1]; TATA = O=C(CC[*:1])N1CN(C(=O)CC[*:2])CN(C(=O)CC[*:3])C1; Hyp = O=C(O)[C@@H]1C[C@@H](O)CN1; hArg = N=C(N)NCCCC[C@H](N)C(=O)O; βAla = NCCC(=O)O

By UniProt entry, the sequences of proteins in these tests, tags left out. Residues count along the entry.
UniProt P29317, 24-537: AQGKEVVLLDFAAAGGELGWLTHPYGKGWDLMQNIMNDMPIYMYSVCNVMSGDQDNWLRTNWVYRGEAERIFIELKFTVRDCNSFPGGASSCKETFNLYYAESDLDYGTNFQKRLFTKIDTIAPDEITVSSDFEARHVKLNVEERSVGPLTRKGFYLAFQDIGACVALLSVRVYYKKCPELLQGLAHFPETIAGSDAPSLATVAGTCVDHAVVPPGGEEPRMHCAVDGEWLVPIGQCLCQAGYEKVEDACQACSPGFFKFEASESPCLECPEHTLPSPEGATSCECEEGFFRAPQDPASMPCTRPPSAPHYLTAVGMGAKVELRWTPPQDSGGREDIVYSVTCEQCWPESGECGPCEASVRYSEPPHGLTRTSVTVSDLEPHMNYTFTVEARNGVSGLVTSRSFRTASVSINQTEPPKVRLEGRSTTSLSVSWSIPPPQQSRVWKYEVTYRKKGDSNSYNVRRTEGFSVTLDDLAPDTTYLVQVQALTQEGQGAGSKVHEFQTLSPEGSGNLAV
UniProt Q03145, 26-538: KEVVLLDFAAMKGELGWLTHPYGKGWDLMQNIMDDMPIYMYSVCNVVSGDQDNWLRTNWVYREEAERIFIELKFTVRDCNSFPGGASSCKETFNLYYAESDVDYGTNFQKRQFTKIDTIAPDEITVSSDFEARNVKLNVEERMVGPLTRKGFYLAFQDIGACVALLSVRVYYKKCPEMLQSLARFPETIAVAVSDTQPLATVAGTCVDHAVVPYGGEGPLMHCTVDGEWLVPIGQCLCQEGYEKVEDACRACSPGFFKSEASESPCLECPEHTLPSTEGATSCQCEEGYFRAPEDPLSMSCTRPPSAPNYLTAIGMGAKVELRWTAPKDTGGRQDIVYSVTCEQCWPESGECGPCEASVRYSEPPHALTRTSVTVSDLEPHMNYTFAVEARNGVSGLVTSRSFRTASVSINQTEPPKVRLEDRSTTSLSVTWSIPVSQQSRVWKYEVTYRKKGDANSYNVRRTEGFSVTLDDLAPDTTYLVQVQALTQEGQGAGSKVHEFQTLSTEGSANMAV

Key:
[1] = target: Human EphA2 (Ecto), C-terminal polyHis (Human) (UniProt P29317); assay: FP competition against Reference Compound C (Study 2)
[2] = target: Mouse EphA2 (Ecto), C-terminal polyHis (Mouse) (UniProt Q03145); assay: as above

Ki [1] | Ki [2] | Binder
1.9 nM |  | [βAla][Sar10]A[hArg]DC[Hyp]LVNPLCLHP[dD]W[hArg]C (linker 6-13-20 via TATA; not fully specified (C-terminus); also: ValCit-MMAE linker-toxin attached, site not given here) [BCY6136]
2.7 nM | 4.5 nM | [βAla][Sar10]A[hArg]DC[Hyp]LVNPLCLHP[dD]W[hArg]C-NH2 (linker 6-13-20 via TATA; N-terminus assumed; SMILES CC(C)C[C@@H]1NC(=O)[C@@H]2CSCCC(=O)N3CN(CN(C3)C(=O)CCSC[C@H](NC(=O)[C@H](CC(=O)O)NC(=O)[C@H](CCCCNC(=N)N)NC(=O)[C@H](C)NC(=O)CN(C)C(=O)CN(C)C(=O)CN(C)C(=O)CN(C)C(=O)CN(C)C(=O)CN(C)C(=O)CN(C)C(=O)CN(C)C(=O)CN(C)C(=O)CN(C)C(=O)CCN)C(=O)N3C[C@H](O)C[C@H]3C(=O)N[C@@H](CC(C)C)C(=O)N[C@@H](C(C)C)C(=O)N[C@@H](CC(N)=O)C(=O)N3CCC[C@H]3C(=O)N[C@@H](CC(C)C)C(=O)N2)C(=O)CCSC[C@@H](C(N)=O)NC(=O)[C@H](CCCCNC(=N)N)NC(=O)[C@H](Cc2c[nH]c3ccccc23)NC(=O)[C@@H](CC(=O)O)NC(=O)[C@@H]2CCCN2C(=O)[C@H](Cc2c[nH]cn2)NC1=O) [BCY6099]
